These results are taken from US9994691B2, “Antimicrobial cleansing composition” (Conopco, Inc., d/b/a UNILEVER, priority 2014, dated 2018).

The text on this data set:
Disclosed antimicrobial cleansing composition includes 0.1 to 100 ppm silver (I) compound.

With Silver salicylate, the “Silver Ion Solubility [Ag+]” value is 3900 µM. The same measure for Silver oxide: 140 µM.
